The target in this assay is Human NatB (hNatB), complex of the catalytic subunit hNAA20 and the auxiliary subunit hNAA25 (human) (UniProt P61599).

Consider “CoA-αSFL (9), bisubstrate inhibitor of coenzyme A covalently conjugated to full-length human α-synuclein (from UniProt P37840 1-140)”, for which the IC50 of inhibition of hNatB (SI, Fig. S6) turned out to be 2190 nM.

Values taken from paper PMC10728591.
